Data from ChEMBL document CHEMBL5316269, “Rational Design of a New RXR Agonist Scaffold Enabling Single-Subtype Preference for RXRα, RXRβ, and RXRγ” (J Med Chem, 2023).

Amino acid sequences for entries named in this document (tags omitted).
UniProt P13631, whole entry: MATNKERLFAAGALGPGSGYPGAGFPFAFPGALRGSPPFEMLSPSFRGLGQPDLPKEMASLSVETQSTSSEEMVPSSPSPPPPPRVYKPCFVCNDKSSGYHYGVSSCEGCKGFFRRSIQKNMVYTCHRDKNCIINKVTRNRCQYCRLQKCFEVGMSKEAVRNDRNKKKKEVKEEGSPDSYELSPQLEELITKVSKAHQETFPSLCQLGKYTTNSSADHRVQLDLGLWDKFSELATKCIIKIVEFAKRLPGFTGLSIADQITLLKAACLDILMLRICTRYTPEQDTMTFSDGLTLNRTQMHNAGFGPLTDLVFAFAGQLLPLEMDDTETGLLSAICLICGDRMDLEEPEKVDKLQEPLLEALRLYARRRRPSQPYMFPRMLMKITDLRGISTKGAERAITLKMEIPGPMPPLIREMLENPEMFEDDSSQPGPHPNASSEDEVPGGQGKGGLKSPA
UniProt P10826, whole entry: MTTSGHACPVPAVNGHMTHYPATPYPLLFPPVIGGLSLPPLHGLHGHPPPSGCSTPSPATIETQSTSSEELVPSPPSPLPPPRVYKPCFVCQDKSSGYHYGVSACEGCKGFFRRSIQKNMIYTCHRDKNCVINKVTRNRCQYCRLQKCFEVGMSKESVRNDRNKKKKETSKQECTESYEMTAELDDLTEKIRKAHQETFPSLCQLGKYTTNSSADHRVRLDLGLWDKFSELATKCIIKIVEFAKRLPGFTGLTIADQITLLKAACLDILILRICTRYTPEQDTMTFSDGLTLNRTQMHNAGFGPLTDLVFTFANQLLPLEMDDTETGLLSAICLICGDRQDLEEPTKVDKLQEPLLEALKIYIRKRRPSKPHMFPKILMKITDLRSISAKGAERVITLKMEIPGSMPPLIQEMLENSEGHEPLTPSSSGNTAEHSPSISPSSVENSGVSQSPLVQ
UniProt Q13133, whole entry: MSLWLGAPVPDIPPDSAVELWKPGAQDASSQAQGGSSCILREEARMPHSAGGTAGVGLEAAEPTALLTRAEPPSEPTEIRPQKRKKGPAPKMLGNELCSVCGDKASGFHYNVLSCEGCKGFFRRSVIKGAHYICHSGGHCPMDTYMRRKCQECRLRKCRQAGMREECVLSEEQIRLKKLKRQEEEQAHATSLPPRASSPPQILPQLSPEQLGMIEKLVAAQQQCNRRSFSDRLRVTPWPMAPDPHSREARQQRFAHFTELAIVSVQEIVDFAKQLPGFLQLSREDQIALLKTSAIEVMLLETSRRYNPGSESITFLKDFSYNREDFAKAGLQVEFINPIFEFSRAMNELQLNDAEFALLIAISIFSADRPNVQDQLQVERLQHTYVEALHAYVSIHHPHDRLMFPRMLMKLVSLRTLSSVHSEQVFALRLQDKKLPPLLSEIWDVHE
UniProt P10276, whole entry: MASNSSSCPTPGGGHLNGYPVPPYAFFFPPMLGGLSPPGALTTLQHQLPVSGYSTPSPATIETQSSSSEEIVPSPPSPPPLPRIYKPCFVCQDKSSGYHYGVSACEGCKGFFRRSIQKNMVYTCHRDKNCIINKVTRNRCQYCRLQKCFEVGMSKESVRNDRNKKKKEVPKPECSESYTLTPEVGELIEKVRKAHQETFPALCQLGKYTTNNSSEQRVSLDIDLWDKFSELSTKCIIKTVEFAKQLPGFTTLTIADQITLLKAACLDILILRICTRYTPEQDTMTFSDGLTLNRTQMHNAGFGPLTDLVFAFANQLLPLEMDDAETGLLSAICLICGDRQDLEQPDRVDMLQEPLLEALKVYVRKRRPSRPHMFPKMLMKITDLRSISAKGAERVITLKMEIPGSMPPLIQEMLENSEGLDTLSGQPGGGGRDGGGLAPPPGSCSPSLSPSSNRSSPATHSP

Experiments:
Assay type in all cases: cell-based
[1] = biological target: Retinoic acid receptor gamma (Homo sapiens) (UniProt P13631); test: Agonist activity at human GAL4-fused RARgamma LBD expressed in human HEK293T cells cotransfected with pFR-Luc and pRL-SV40 assessed as increase in luciferase activity at 30 uM incubated for 16 hrs by Dual-Glo luciferase assay relative to control
[2] = biological target: Retinoic acid receptor beta (Homo sapiens) (UniProt P10826); test: Agonist activity at human GAL4-fused RARbeta LBD expressed in human HEK293T cells cotransfected with pFR-Luc and pRL-SV40 assessed as increase in luciferase activity at 30 uM incubated for 16 hrs by Dual-Glo luciferase assay relative to control
[3] = biological target: Oxysterols receptor LXR-alpha (Homo sapiens) (UniProt Q13133); test: Agonist activity at human GAL4-fused LXRalpha LBD expressed in human HEK293T cells cotransfected with pFR-Luc and pRL-SV40 assessed as increase in luciferase activity at 30 uM incubated for 16 hrs by Dual-Glo luciferase assay relative to control
[4] = biological target: T1, Thyroid hormone receptor beta (Homo sapiens) (UniProt P10828); test: Agonist activity at human GAL4-fused THRbeta LBD expressed in human HEK293T cells cotransfected with pFR-Luc and pRL-SV40 assessed as increase in luciferase activity at 30 uM incubated for 16 hrs by Dual-Glo luciferase assay relative to control
T1 sequence (whole entry): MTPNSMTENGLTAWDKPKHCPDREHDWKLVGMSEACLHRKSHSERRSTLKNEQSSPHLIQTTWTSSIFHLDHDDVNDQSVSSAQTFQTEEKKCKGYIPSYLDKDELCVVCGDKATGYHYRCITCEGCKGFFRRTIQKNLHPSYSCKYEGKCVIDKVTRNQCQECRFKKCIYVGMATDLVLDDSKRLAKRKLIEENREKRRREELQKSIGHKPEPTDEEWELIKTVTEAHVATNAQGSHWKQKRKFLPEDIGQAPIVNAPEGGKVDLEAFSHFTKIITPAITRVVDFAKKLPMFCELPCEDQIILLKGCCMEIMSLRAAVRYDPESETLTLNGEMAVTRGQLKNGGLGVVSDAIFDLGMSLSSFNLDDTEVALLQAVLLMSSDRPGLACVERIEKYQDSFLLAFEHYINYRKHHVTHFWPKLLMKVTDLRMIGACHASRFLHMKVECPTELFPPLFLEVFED

[5] = biological target: Retinoic acid receptor alpha (Homo sapiens) (UniProt P10276); test: Agonist activity at human GAL4-fused RARalpha LBD expressed in human HEK293T cells cotransfected with pFR-Luc and pRL-SV40 assessed as increase in luciferase activity at 30 uM incubated for 16 hrs by Dual-Glo luciferase assay relative to control
[6] = biological target: T2, Thyroid hormone receptor alpha (Homo sapiens) (UniProt P10827); test: Agonist activity at human GAL4-fused THRalpha LBD expressed in human HEK293T cells cotransfected with pFR-Luc and pRL-SV40 assessed as increase in luciferase activity at 30 uM incubated for 16 hrs by Dual-Glo luciferase assay relative to control
T2 sequence (whole entry): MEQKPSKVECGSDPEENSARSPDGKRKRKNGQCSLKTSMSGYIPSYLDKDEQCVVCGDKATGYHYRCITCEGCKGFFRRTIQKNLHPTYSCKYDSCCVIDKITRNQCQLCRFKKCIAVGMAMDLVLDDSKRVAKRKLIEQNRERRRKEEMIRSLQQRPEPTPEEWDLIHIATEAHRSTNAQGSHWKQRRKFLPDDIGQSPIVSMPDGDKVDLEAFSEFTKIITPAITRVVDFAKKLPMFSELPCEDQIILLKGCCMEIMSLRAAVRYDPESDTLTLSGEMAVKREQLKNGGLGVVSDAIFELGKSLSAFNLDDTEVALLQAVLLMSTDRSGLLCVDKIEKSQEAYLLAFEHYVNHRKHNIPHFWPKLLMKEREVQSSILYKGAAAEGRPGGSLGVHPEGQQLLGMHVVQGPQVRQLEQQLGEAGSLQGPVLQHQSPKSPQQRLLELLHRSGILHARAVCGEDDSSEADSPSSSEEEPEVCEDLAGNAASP

[7] = biological target: T3, Bile acid receptor (Homo sapiens) (UniProt Q96RI1); test: Agonist activity at human GAL4-fused FXR LBD expressed in human HEK293T cells cotransfected with pFR-Luc and pRL-SV40 assessed as increase in luciferase activity at 30 uM incubated for 16 hrs by Dual-Glo luciferase assay relative to control
T3 sequence (whole entry): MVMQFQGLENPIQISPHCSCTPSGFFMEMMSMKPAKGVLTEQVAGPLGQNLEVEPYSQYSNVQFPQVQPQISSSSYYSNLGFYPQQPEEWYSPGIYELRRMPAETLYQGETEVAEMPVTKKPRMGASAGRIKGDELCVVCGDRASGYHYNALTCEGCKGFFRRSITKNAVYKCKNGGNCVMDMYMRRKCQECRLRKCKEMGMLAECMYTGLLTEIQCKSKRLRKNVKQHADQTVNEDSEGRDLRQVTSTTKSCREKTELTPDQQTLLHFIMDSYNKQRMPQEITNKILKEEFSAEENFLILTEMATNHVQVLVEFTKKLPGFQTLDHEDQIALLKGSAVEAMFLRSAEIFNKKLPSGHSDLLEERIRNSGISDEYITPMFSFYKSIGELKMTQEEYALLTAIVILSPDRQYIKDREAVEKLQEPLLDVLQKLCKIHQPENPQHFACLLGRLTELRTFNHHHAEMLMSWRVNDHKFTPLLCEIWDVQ

[8] = biological target: T4, Vitamin D3 receptor (Homo sapiens) (UniProt P11473); test: Agonist activity at human GAL4-fused VDR LBD expressed in human HEK293T cells cotransfected with pFR-Luc and pRL-SV40 assessed as increase in luciferase activity at 30 uM incubated for 16 hrs by Dual-Glo luciferase assay relative to control
T4 sequence (whole entry): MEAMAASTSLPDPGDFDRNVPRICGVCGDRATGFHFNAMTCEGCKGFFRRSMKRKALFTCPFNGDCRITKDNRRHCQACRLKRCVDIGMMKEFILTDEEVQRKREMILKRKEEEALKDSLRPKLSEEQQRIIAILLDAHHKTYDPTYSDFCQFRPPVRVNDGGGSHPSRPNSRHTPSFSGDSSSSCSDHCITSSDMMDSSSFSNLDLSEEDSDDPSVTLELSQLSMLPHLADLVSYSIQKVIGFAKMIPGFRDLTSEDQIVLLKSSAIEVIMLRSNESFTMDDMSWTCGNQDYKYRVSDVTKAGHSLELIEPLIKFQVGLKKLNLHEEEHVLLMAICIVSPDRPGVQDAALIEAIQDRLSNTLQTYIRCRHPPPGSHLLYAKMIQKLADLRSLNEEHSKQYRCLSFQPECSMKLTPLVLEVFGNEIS

Row | Activity [1] | Activity [2] | Activity [3] | Activity [4] | Activity [5] | Activity [6] | Activity [7] | Activity [8] | Compound
1 | 1% | 2% | 1% | 1% | 1% | 1% | 2% | 3% | O=C(O)Cc1cccc(COc2cccc3c2CCC3)c1
2 | 4% | 3% | 1% | 1% | 1% | 1% | 2% | 2% | Cc1ccc(OCc2ccc(CCC(=O)O)c(F)c2)c2c1CCC2
